The results in this text go back to patent EP3353259B1, “SILYL MODIFIED POLYMER SEALANT” (Strongbond B.V., priority 2015, dated 2017).

A short description of the data set: Stress test: degradation time at 150°C of the sealant with antioxidant after storage of the uncured sealant at 40°C. The procedure: All ingredients except the Tegokat are added to a Hauschild cup and mixed in a Hauschild mixer for 60 seconds. Than the catalyst is added and mixed for another 30 seconds. Additionally UV- and light stabilizers, pigments etc. may be added in the first or second step.
In fig.6 the degradation time in hours at 150°C is plotted versus the time in days prior to cure at 40°C. On the horizontal axis the time the sealant was stored at 40°C before cure in days is given, showing the storage stability of the anti-oxidant, and on the vertical axis the time in hours to degradation at 150°C, showing the effectiveness of the anti-oxidant after storage of the sealant. This test may be seen as a stress test for both storage stability of the sealant as subsequent oxidation stability. The line represents the present situation using Irganox 1135 commonly applied in the sealant.
In fig. 8 a similar test as in fig. 6 is performed with the above mentioned anti-oxidants.
At present samples have been tested of a commercial STP (or SMP) sealant containing Irganox 1035, Irganox 1330 and a mixture thereof. The total antioxidant content of all samples is 4 g/kg STP polymer. The samples are stored in an oven at 40°C. The degradation times are determined at 150°C as a function of storage time. Furthermore, tensile tests are performed directly and after dumbbells used in said tests are exposed to 100°C for 1000 hours. This is done on freshly prepared sealants and sealants that have been stored at 40°C for 4 weeks.

Styrenated Phenol [reference compound]: the “Relative decrease degradation time after 7days @ 40°C” value (after 7 days at 40°C relative to initial) is reported as 83%. Also, the “Degradation time after 7 days @ 40°C” value (time to degradation at 150°C after storage of the sealant for 7 days at 40°C) worked out at 10 h. For the same substance, the “Initial degradation Time” value (time to degradation at 150°C, sealant not stored before cure) is given as 12 h.
